The results in this text go back to publication PMC6009982, “Diaryl ethers with carboxymethoxyphenacyl motif as potent HIV-1 reverse transcriptase inhibitors with improved solubility” (Journal of Enzyme Inhibition and Medicinal Chemistry, 2017).

For data set [1], the system named is SupT1 cells. The data set is described as follows: Cytotoxicity from cell numbers in non-infected SupT1 cultures. The format is cell-based. The conditions noted are these: tested form: K salt; for Threshold toxicity: concentration at which toxicity is observed in 10-fold titration series.
The nature of data set [2]: Aqueous solubility by weighing dried aliquots. It is filed as physicochemical. The conditions noted are these: tested form: K salt; for Solubility: ultrapure deionised water, room temperature, pH =7.
The subject of data set [3] is CD4+ T cells. Nature of the data set: Cytotoxicity from cell numbers in CD4+ T cells. The format is cell-based. The conditions noted are these: primary CD4+ T cells; tested form: K salt.

Regarding `N#Cc1cc(Cl)cc(Oc2cc(Cl)ccc2OCC(=O)c2ccc(OCC(=O)O)cc2)c1`, the Threshold toxicity in data set [1] was 5 µM.
As to `N#Cc1cc(Cl)cc(Oc2ccc(Cl)cc2OCC(=O)c2ccc(Oc3ccc(OCC(=O)O)cc3)cc2)c1`, in data set [2], the Solubility is >50.0 mg/mL. The Threshold toxicity in data set [1] came out at 50 µM.
Turning to `N#Cc1cc(Cl)cc(Oc2cc(OCC(=O)c3ccc(Oc4ccc(OCC(=O)O)cc4)cc3)ccc2Cl)c1`, the Solubility in data set [2] worked out at 3.2 mg/mL. For the same compound, the “Solubility relative to RPV” value in data set [2] (water, times greater than that of RPV) is “ca. 100,000 times”. Moreover, in data set [1], the Threshold toxicity was found to be 50 µM. For the same compound, the “Concentration above which toxicity was apparent” value in data set [1] and in data set [3] was “above 20 µM” throughout.
